The text below walks through data of patent US20090124555A1, “USE OF HISTOGRANIN AND HISTOGRANIN-LIKE COMPOUNDS AS INHIBITORS OF P2X7 RECEPTOR FUNCTION AND AS ANTI-ARTHRITIC AGENTS” (priority 2005, published 2009).

The target in assay [1] is P2X7 receptor (in mice) (mouse) (UniProt Q9Z1M0). Briefly: cell-based or functional assay.
Assay [2] deals with P2X7 receptor (on rat alveolar macrophages) (rat) (UniProt Q64663). Description: cell-based or functional assay.

For [Val^1, Val^2, Arg^7]HN (peptide), in assay [1], the IL-6 in peritoneal lavage of LPS-primed, ATP-challenged mice, C-4 0.1 mg i.p. (16 ng/ml without C-4) was 9.5 ng/mL and the IL-6 in peritoneal lavage of LPS-primed, ATP-challenged mice, C-4 0.3 mg i.p. (16 ng/ml without C-4) amounted to 7 ng/mL. In assay [2], this substance yielded a half-maximal inhibition of ATP-induced IL-1.beta release from LPS-primed macrophages of 1 nM; a percent annexin-V positive cells after BzATP (PS flip), C-4 at 10^-8 M (% annexin-V positive cells) of 5; a percent annexin-V positive cells after BzATP (PS flip), C-4 at 10^-9 M (% annexin-V positive cells) of 12; a percent apoptotic macrophages after ATP (Hoechst / propidium iodide staining), C-4 at 10^-10M (% apoptotic macrophages) of 54.
